Test results taken from patent US9012461B2 (dated 2015).

Each compound was assayed on MDA-231-LNA primary tumours (assay: Combination study, MDA-231-LNA orthotopic xenograft model). Conditions: single agent, p.o. 54 mg/kg BID, after 13 days of dosing.
Type: in vivo, Balb/c SCID mice

SMILES	decrease in CD31+ vascular density in tumours [%]
CN1CCC(c2ccc(Nc3ncc(C(F)(F)F)c(CCc4ccccc4CC(N)=O)n3)cc2)CC1 [Compound 16, 2-(2-(2-(2-((4-(1-methylpiperidin-4-yl)phenyl)amino)-5-(trifluoromethyl)pyrimidin-4-yl)ethyl)phenyl)acetamide]	50

These compounds were tested on MDA-231-LNA cells (assay: not given). Conditions: 3 days.

SMILES	pIC50
CN1CCN(c2ccc(Nc3ncc(C(F)(F)F)c(CCc4ccccc4CC(N)=O)n3)cc2)CC1 [Compound 3, 2-(2-(2-(2-((4-(4-Methylpiperazin-1-yl)phenyl)amino)-5-(trifluoromethyl)pyrimidin-4-yl)ethyl)phenyl)acetamide]	5.79
NC(=O)Cc1ccccc1CCc1nc(Nc2ccc(N3CCC(N)CC3)cc2)ncc1C(F)(F)F [Compound 20, 2-(2-(2-(2-((4-(4-Aminopiperidin-1-yl)phenyl)amino)-5-(trifluoromethyl)pyrimidin-4-yl)ethyl)phenyl)acetamide]	5.84
NC(=O)Cc1ccccc1CCc1nc(Nc2ccc(C3CCNCC3)cc2)ncc1C(F)(F)F [Compound 11, 2-(2-(2-(2-((4-(piperidin-4-yl)phenyl)amino)-5-(trifluoromethyl)pyrimidin-4-yl)ethyl)phenyl)acetamide]	5.65
NC(=O)Cc1ccccc1CCc1nc(Nc2ccc3c(c2)CCNC3)ncc1C(F)(F)F [Compound 21, 2-(2-(2-(2-((1,2,3,4-Tetrahydroisoquinolin-6-yl)amino)-5-(trifluoromethyl)pyrimidin-4-yl)ethyl)phenyl)acetamide]	6.10
NC(=O)Cc1nccnc1CCc1nc(Nc2ccc(C3CCNCC3)cc2)ncc1C(F)(F)F [Compound 26, 2-(3-(2-(2-((4-(Piperidin-4-yl)phenyl)amino)-5-(trifluoromethyl)pyrimidin-4-yl)ethyl)pyrazin-2-yl)acetamide]	< 5.26
NC(=O)Cc1ccccc1CCc1nc(Nc2ccc(C3CCCCN3)cc2)ncc1C(F)(F)F (stereo not drawn) [Compound 8, 2-(2-(2-(2-((4-(Piperidin-2-yl)phenyl)amino)-5-(trifluoromethyl)pyrimidin-4-yl)ethyl)phenyl)acetamide]	5.94
NC(=O)Cc1ccccc1CCc1nc(Nc2ccc(C3CCCNC3)cc2)ncc1C(F)(F)F (stereo not drawn) [Compound 4, 2-(2-(2-(2-((4-(Piperidin-3-yl)phenyl)amino)-5-(trifluoromethyl)pyrimidin-4-yl)ethyl)phenyl)acetamide]	5.76
CN1CCCC(c2ccc(Nc3ncc(C(F)(F)F)c(CCc4ccccc4CC(N)=O)n3)cc2)C1 (stereo not drawn) [Compound 7, 2-(2-(2-(2-((4-(1-Methylpiperidin-3-yl)phenyl)amino)-5-(trifluoromethyl)pyrimidin-4-yl)ethyl)phenyl)acetamide]	5.76
CN1CCCC(c2ccc(Nc3ncc(C(F)(F)F)c(CCc4ccccc4CC(N)=O)n3)cc2)C1 (stereo not drawn) [Compound 5, 2-(2-(2-(2-((4-(1-Methylpiperidin-3-yl)phenyl)amino)-5-(trifluoromethyl)pyrimidin-4-yl)ethyl)phenyl)acetamide]	5.81
CC(C(N)=O)c1ccccc1CCc1nc(Nc2ccc(C3CCNCC3)cc2)ncc1C(F)(F)F (stereo not drawn) [Compound 12, 2-(2-(2-(2-((4-(piperidin-4-yl)phenyl)amino)-5-(trifluoromethyl)pyrimidin-4-yl)ethyl)phenyl)propanamide]	5.77
CN1CCC(c2ccc(Nc3ncc(C(F)(F)F)c(CCc4ncccc4CC(N)=O)n3)cc2)CC1 [Compound 33, 2-(2-(2-(2-((4-(1-Methylpiperidin-4-yl)phenyl)amino)-5-(trifluoromethyl)pyrimidin-4-yl)ethyl)pyridin-3-yl)acetamide]	5.82

Now from value to compound:

pIC50	SMILES
5.94	NC(=O)Cc1ccccc1CCc1nc(Nc2ccc(N3CCNCC3)cc2)ncc1C(F)(F)F [Compound 1, 2-(2-(2-(2-((4-(piperazin-1-yl)phenyl)amino)-5-(trifluoromethyl)pyrimidin-4-yl)ethyl)phenyl)acetamide]
5.39	CCN1CCC(c2ccc(Nc3ncc(C(F)(F)F)c(CCc4ccccc4CC(N)=O)n3)cc2)CC1 [Compound 31, 2-(2-(2-(2-((4-(1-Ethylpiperidin-4-yl)phenyl)amino)-5-(trifluoromethyl)pyrimidin-4-yl)ethyl)phenyl)acetamide]
5.97	NC(=O)Cc1ccccc1CCc1nc(Nc2ccc(C3CNCCO3)cc2)ncc1C(F)(F)F (stereo not drawn) [Compound 22, 2-(2-(2-(2-((4-(Morpholin-2-yl)phenyl)amino)-5-(trifluoromethyl)pyrimidin-4-yl)ethyl)phenyl)acetamide]
5.70	CN1CCC(c2ccc(Nc3ncc(C(F)(F)F)c(CCc4ccccc4CC(N)=O)n3)cc2)CC1 [Compound 16, 2-(2-(2-(2-((4-(1-methylpiperidin-4-yl)phenyl)amino)-5-(trifluoromethyl)pyrimidin-4-yl)ethyl)phenyl)acetamide]
< 5.30	NC(=O)Cc1cncnc1CCc1nc(Nc2ccc(C3CCNCC3)cc2)ncc1C(F)(F)F [Compound 29, 2-(4-(2-(2-((4-(Piperidin-4-yl)phenyl)amino)-5-(trifluoromethyl)pyrimidin-4-yl)ethyl)pyrimidin-5-yl)acetamide]
5.45	CN1CCCCC1c1ccc(Nc2ncc(C(F)(F)F)c(CCc3ccccc3CC(N)=O)n2)cc1 (stereo not drawn) [Compound 9, 2-(2-(2-(2-((4-(1-methylpiperidin-2-yl)phenyl)amino)-5-(trifluoromethyl)pyrimidin-4-yl)ethyl)phenyl)acetamide]

pIC50: −log10 of the molar value.
